From US8148427B2, “Benzylamine derivative or pharmaceutically acceptable acid addition salt thereof, and use thereof for medical purposes” (Toray Industries, Inc., priority 2007, dated 2012)

Test system: female Spague-Dawley rat
Test: Effect on cardiovascular system in conscious rats
Assay type: in vivo
Settings: 3 mg/kg subcutaneously, 30 minutes, relative to before administration
Procedure: This method was carried out in accordance with the literature [Experimental Methods in Pharmacology, 5th Revised Edition, p. 168, KYODO ISHO SHUPPAN CO., LTD.]
Each female Spague-Dawley rat was anesthetized with ether, and a polyethylene cannula was inserted into the left common carotid artery and fixed therein, followed by subcutaneously indwelling a cannula for drug administration. After recovery from anesthesia, the mean blood pressure and the heart rate were measured under free moving conditions. After confirming that the blood pressure became stable, the drug was administered subcutaneously, and changes in the mean blood pressure and the heart rate were observed.

Nc1nc(CC(=O)Nc2ccc(CCNC[C@H](O)c3ccccc3)cc2)cs1 [Compound 11, reference compound]
Change in Heart Rate: 114.5 ± 3.1 %
